For 21 molecules, IC50 results are on record in US10143681B2, “Factor XIa inhibitors” (MERCK SHARP & DOHME CORP., priority 2016, dated 2018).

Protein sequences, listed by entry. Tags and fused reporters are not part of them. Residues count along the entry.
UniProt P03951, 19-387 partner: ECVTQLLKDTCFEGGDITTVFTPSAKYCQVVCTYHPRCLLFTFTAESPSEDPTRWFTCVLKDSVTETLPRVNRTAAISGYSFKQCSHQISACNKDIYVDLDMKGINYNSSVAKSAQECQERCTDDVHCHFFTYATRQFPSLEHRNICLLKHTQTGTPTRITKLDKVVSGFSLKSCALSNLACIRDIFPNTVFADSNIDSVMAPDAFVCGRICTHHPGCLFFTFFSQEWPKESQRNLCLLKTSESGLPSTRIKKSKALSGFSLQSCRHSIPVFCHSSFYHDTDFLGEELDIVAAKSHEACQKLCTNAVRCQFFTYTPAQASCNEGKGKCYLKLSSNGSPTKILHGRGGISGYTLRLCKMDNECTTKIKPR
UniProt P03951, 388-625: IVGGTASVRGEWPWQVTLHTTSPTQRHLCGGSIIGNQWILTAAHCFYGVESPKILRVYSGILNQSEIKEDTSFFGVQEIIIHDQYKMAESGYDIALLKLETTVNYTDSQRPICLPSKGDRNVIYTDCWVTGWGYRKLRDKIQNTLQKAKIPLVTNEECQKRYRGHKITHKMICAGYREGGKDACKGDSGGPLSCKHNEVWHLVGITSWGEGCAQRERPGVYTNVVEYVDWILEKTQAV
UniProt P03952, 20-390 partner: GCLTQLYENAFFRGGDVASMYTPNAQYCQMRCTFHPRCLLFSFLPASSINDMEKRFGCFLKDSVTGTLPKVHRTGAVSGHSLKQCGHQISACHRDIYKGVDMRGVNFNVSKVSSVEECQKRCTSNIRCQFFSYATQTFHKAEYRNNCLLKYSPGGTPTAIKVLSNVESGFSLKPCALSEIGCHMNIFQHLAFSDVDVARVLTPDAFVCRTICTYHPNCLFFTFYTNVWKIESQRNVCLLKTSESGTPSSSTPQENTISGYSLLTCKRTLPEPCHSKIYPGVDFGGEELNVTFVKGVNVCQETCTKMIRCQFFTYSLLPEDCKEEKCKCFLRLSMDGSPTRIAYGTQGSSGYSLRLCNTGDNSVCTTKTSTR
UniProt P03952, 391-638: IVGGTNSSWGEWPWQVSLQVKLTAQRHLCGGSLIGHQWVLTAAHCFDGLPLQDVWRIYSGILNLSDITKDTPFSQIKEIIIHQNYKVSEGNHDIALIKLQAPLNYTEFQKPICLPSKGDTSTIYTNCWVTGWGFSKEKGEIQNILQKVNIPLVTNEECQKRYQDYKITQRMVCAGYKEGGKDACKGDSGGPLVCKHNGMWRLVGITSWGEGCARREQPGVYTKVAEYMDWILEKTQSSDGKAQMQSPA

SMILES strings stand for the structures. Bounds are passed on as bounds.

The term IC50 denotes the concentration needed to halve the response being measured.

One experiment addresses human Factor XIa (Homo sapiens (Human), UniProt P03951). Nature of the experiment: Factor XIa Assay. The format is biochemical. The note with it: human Factor XIa 0.04 nM, 30 min pre-incubation at 25° C., substrate GPR-AFC; read-out: FXIa IC50. On the procedure: (§1) The effectiveness of a compound of the present invention as an inhibitor of Coagulation Factor XIa can be determined using a relevant purified serine protease, and an appropriate synthetic substrate. The rate of hydrolysis of the chromogenic or fluorogenic substrate by the relevant serine protease was measured both in the absence and presence of compounds of the present invention. Assays were conducted at room temperature or at 37° C. […] A decrease in the rate of fluorescence change in the presence of inhibitor is indicative of enzyme inhibition. Such methods are known to one skilled in the art. The results of this assay are expressed as the half-maximal inhibitory concentrations (IC50), or the inhibitory constant, Ki.
Compounds were pre-incubated for 30 minutes at 25° C. with human (0.04 nM) Factor XIa in 50 mM HEPES buffer with 150 mM sodium chloride, 5 mM calcium chloride, 0.1% PEG 8000, pH 7.4. Factor XIa enzymatic activity was determined by addition of the substrate glycine-proline-arginine-7-amido-4-trifluoromethylcoumarin (GPR-AFC) and measurement of the fluorescence at 400/505 nm after a 60 minute incubation at 25° C. The % inhibition for each data point was calculated from the data and analyzed using the log (inhibitor) vs. response four parameters equation to determine the half-maximal inhibitory concentrations (IC50). The IC50 were converted to equilibrium inhibitory constants (Ki) using the Cheng-Prusoff equation.

The target in another experiment is Human plasma kallikrein (Homo sapiens (Human), UniProt P03952). The experiment is described as follows: Kallikrein Assay. Format: biochemical. The note with it: purified Human plasma kallikrein 0.5 nM, substrate Acetyl-K-P-R-AFC; read-out: P. KLK IC50. Here is the method: as §1, with “Kallikrein” for “Coagulation Factor XIa”
Kallikrein determinations were made in 50 mM HEPES buffer at pH 7.4 containing 150 mM NaCl, 5 mM CaCl2, and 0.1% PEG 8000 (polyethylene glycol; Fisher Scientific). Determinations were made using purified Human plasma kallikrein at a final concentration of 0.5 nM (Enzyme Research Laboratories) and the synthetic substrate, Acetyl-K-P-R-AFC (Sigma # C6608) at a concentration of […].
Times required to achieve equilibration between enzyme and inhibitor were determined in control experiments. The reactions were performed under linear progress curve conditions and fluorescence increase measured at 405 Ex/510 Em nm. […] IC50 was determined by inflection point from a four parameter logistic curve fit. Ki was calculated using the Cheng Prusoff equation, Ki=IC50/(1+([S]/Km)).

For `O=C(O)c1ccc(NC(=O)C(CC2CC(F)(F)C2)c2ccc(-c3c(OC(F)F)ccc(Cl)c3F)c[n+]2[O-])cc1` (racemic) [Example 49, (S)- and (R)-2-(1-((4-carboxyphenyl)amino)-3-(3,3-difluorocyclobutyl)-1-oxopropan-2-yl)-5-(3-chloro-6-(difluoromethoxy)-2-fluorophenyl)pyridine 1-oxide], at human Factor XIa, the concentration for half-maximal inhibition (IC50) is greater than 1000 nM.
Same read-out and setting: the same measure for `O=C(O)c1ccc(NC(=O)C(CC2CC(F)(F)C2)c2ccc(-c3c(OC(F)F)ccc(Cl)c3F)c[n+]2[O-])cc1` (racemic) [Example 50, (S)- and (R)-2-(1-((4-carboxyphenyl)amino)-3-(3,3-difluorocyclobutyl)-1-oxopropan-2-yl)-5-(3-chloro-6-(difluoromethoxy)-2-fluorophenyl)pyridine 1-oxide]: 3.8 nM; for `O=C(O)c1ccc(NC(=O)[C@H](CC2CC2)c2ccc(-c3c(OC(F)F)ccc(Cl)c3F)c[n+]2[O-])cc1` (single isomer, unassigned) [Example 1]: greater than 1000 nM.
As to `C[C@H]1C[C@@H]1C[C@@H](C(=O)Nc1ccc(C(=O)O)cc1)c1ccc(-c2c(OC(F)F)ccc(Cl)c2F)c[n+]1[O-]` (single isomer, unassigned) [Example 55], the half-inhibitory concentration (IC50) on Human plasma kallikrein was 21 nM.
As to `C[C@@H]1C[C@H]1C[C@@H](C(=O)Nc1ccc(C(=O)O)cc1)c1ccc(-c2c(OC(F)F)ccc(Cl)c2F)c[n+]1[O-]` (single isomer, unassigned) [Example 56], the IC50 on Human plasma kallikrein turned out to be 16 nM.
Regarding `CC1CC1C[C@H](C(=O)Nc1ccc(C(=O)O)cc1)c1ccc(-c2c(C(F)(F)F)ccc(Cl)c2F)c[n+]1[O-]` (single isomer, unassigned) [Example 64], at human Factor XIa, the IC50 turned out to be 177 nM.
Take `CC1CC1C[C@@H](C(=O)Nc1ccc(C(=O)O)cc1)c1ccc(-c2c(C(F)(F)F)ccc(Cl)c2F)c[n+]1[O-]` (single isomer, unassigned) [Example 65]: the IC50 on human Factor XIa was found to be 1.8 nM.
Same read-out and setting: the same measure for `COc1cc(C(CC2CC2)C(=O)Nc2ccc(C(=O)O)cc2)[n+]([O-])cc1-c1c(OC(F)F)ccc(Cl)c1F` (single isomer, unassigned) [Example 71, 2-(1-((4-carboxyphenyl)amino)-3-cyclopropyl-1-oxopropan-2-yl)-5-(3-chloro-6-(difluoromethoxy)-2-fluorophenyl)-4-methoxypyridine 1-oxide]: 0.47 nM.
With `O=C(O)c1ccc(NC(=O)C(CC2CC2(F)F)c2ccc(-c3c(C(F)F)ccc(Cl)c3F)c[n+]2[O-])cc1` (single isomer, unassigned) [Example 77, 2-(1-((4-carboxyphenyl)amino)-3-(2,2-difluorocyclopropyl)-1-oxopropan-2-yl)-5-(3-chloro-6-(difluoromethyl)-2-fluorophenyl)pyridine 1-oxide], the IC50 at human Factor XIa is 2.3 nM.
With `O=C(O)c1ccc(NC(=O)C(CC2CC2(F)F)c2ccc(-c3c(C(F)F)ccc(Cl)c3F)c[n+]2[O-])cc1` (single isomer, unassigned) [Example 78, 2-(1-((4-carboxyphenyl)amino)-3-(2,2-difluorocyclopropyl)-1-oxopropan-2-yl)-5-(3-chloro-6-(difluoromethyl)-2-fluorophenyl)pyridine 1-oxide], on human Factor XIa, the IC50 came out at 132 nM.
For the molecule `O=C(O)c1ccc(NC(=O)C(CC2CC2(F)F)c2ccc(-c3c(C(F)F)ccc(Cl)c3F)c[n+]2[O-])cc1` (single isomer, unassigned) [Example 79, 2-(1-((4-carboxyphenyl)amino)-3-(2,2-difluorocyclopropyl)-1-oxopropan-2-yl)-5-(3-chloro-6-(difluoromethyl)-2-fluorophenyl)pyridine 1-oxide], at human Factor XIa, the IC50 is 65.1 nM.
Still for that read-out and setting: with `CC1(O)CC(CC(C(=O)Nc2ccc(C(=O)O)cc2)c2ccc(-c3c(C(F)F)ccc(Cl)c3F)c[n+]2[O-])C1` (single isomer, unassigned) [Example 82, 2-(1-((4-carboxyphenyl)amino)-3-(3-hydroxy-3-methylcyclobutyl)-1-oxopropan-2-yl)-5-(3-chloro-6-(difluoromethyl)-2-fluorophenyl)pyridine 1-oxide] the figure was 80 nM.
For `CC1(O)CC(CC(C(=O)Nc2ccc(C(=O)O)cc2)c2ccc(-c3c(C(F)F)ccc(Cl)c3F)c[n+]2[O-])C1` (single isomer, unassigned) [Example 83, 2-(1-((4-carboxyphenyl)amino)-3-(3-hydroxy-3-methylcyclobutyl)-1-oxopropan-2-yl)-5-(3-chloro-6-(difluoromethyl)-2-fluorophenyl)pyridine 1-oxide], the IC50 on human Factor XIa came out at 0.6 nM; at Human plasma kallikrein, 9.4 nM.
With `CC1(O)CC(CC(C(=O)Nc2ccc(C(=O)O)cc2)c2ccc(-c3c(C(F)F)ccc(Cl)c3F)c[n+]2[O-])C1` (single isomer, unassigned) [Example 84, 2-(1-((4-carboxyphenyl)amino)-3-(3-hydroxy-3-methylcyclobutyl)-1-oxopropan-2-yl)-5-(3-chloro-6-(difluoromethyl)-2-fluorophenyl)pyridine 1-oxide], at human Factor XIa, the IC50 amounted to 133 nM.
With `CC1(O)CC(CC(C(=O)Nc2ccc(C(=O)O)cc2)c2ccc(-c3c(C(F)F)ccc(Cl)c3F)c[n+]2[O-])C1` (single isomer, unassigned) [Example 85, 2-(1-((4-carboxyphenyl)amino)-3-(3-hydroxy-3-methylcyclobutyl)-1-oxopropan-2-yl)-5-(3-chloro-6-(difluoromethyl)-2-fluorophenyl)pyridine 1-oxide], the results for the IC50 at human Factor XIa and at Human plasma kallikrein were 2.6 nM and 38 nM, respectively.
Regarding `CC1C(C)C1CC(C(=O)Nc1ccc(C(=O)O)cc1)c1ccc(-c2c(OC(F)F)ccc(Cl)c2F)c[n+]1[O-]` (single isomer, unassigned) [Example 100, 2-(1-((4-carboxyphenyl)amino)-3-(2,3-dimethylcyclopropyl)-1-oxopropan-2-yl)-5-(3-chloro-6-(difluoromethoxy)-2-fluorophenyl)pyridine 1-oxide], on human Factor XIa, the IC50 turned out to be 144 nM.
Take `O=C(O)c1ccc(NC(=O)C(CC2CC(F)C2)c2ccc(-c3c(OC(F)F)ccc(Cl)c3F)c[n+]2[O-])cc1` (single isomer, unassigned) [Example 102, 2-(1-((4-carboxyphenyl)amino)-3-(3-fluorocyclobutyl)-1-oxopropan-2-yl)-5-(3-chloro-6-(difluoromethoxy)-2-fluorophenyl)pyridine 1-oxide]: on human Factor XIa, the IC50 turned out to be 1.8 nM.
Consider `CC1CCC1CC(C(=O)Nc1ccc(C(=O)O)cc1)c1ccc(-c2c(OC(F)F)ccc(Cl)c2F)c[n+]1[O-]` (single isomer, unassigned) [Example 105, 2-(1-((4-carboxyphenyl)amino)-3-(2-methylcyclobutyl)-1-oxopropan-2-yl)-5-(3-chloro-6-(difluoromethoxy)-2-fluorophenyl)pyridine 1-oxide], for which, on Human plasma kallikrein, the IC50 turned out to be 15.7 nM.
For the molecule `CC1CCC1CC(C(=O)Nc1ccc(C(=O)O)cc1)c1ccc(-c2c(OC(F)F)ccc(Cl)c2F)c[n+]1[O-]` (single isomer, unassigned) [Example 106, 2-(1-((4-carboxyphenyl)amino)-3-(2-methylcyclobutyl)-1-oxopropan-2-yl)-5-(3-chloro-6-(difluoromethoxy)-2-fluorophenyl)pyridine 1-oxide], at Human plasma kallikrein, the IC50 was 59.9 nM.
In the case of `CCOC(=O)c1ccc(NC(=O)C(CC2CC2)c2ccc(-c3c(C(F)F)ccc(Cl)c3F)c[n+]2[O-])cc1` (single isomer, unassigned) [Example 115, 5-(3-chloro-6-(difluoromethyl)-2-fluorophenyl)-2-(3-cyclopropyl-1-((4-(ethoxycarbonyl)phenyl)amino)-1-oxopropan-2-yl)pyridine 1-oxide], on human Factor XIa, the IC50 is 1000 nM.
On to `O=C(O)c1ccc(NC(=O)C(CC2CCC2)c2ccc(-c3c(C(F)F)ccc(Cl)c3F)c[n+]2[O-])cc1F` (single isomer, unassigned) [Example 119, 2-(1-((4-carboxy-3-fluorophenyl)amino)-3-cyclobutyl-1-oxopropan-2-yl)-5-(3-chloro-6-(difluoromethyl)-2-fluorophenyl)pyridine 1-oxide], for which, at human Factor XIa, the IC50 is 80.3 nM.
